Assay [1] concerns the target Human immunodeficiency virus type 1 reverse transcriptase (Human immunodeficiency virus 1) (UniProt Q72547). In words: Inhibition of C-Terminal histidine-tagged wild type heterodimeric HIV-1 reverse transcriptase p66/p51 assessed as inhibition of dGTP incorporation to 5'- primer after 30 mins by PAGE using D24/D36 primer/template.
The target is the same in assay [2]. Briefly: Inhibition of C-Terminal histidine-tagged wild type heterodimeric HIV-1 reverse transcriptase p66/p51 assessed as inhibition of dTTP incorporation to 5'- primer after 30 mins by PAGE using D23/D36 primer/template.

SMILES strings stand for the structures. The source made the active and inactive calls. No cut-off for these calls is given here.

On to `Cc1cc(C#CCOCCOCCOCCOCCOCC#Cc2cn([C@H]3C=C[C@@H](COP(=O)(O)OP(=O)(O)OP(=O)(O)O)O3)c(=O)[nH]c2=O)cc(C)c1Oc1ccnc(Nc2ccc(C#N)cc2)n1`, for which the inhibition entry in assay [1] is “inactive”. Further, the inhibition in assay [2] is 100%.

Values taken from ChEMBL document CHEMBL2346547, “Bifunctional inhibition of human immunodeficiency virus type 1 reverse transcriptase: mechanism and proof-of-concept as a novel therapeutic design strategy” (J Med Chem, 2013).
